Amino acid sequences for entries named in this document (tags omitted).
UniProt P50750, whole entry: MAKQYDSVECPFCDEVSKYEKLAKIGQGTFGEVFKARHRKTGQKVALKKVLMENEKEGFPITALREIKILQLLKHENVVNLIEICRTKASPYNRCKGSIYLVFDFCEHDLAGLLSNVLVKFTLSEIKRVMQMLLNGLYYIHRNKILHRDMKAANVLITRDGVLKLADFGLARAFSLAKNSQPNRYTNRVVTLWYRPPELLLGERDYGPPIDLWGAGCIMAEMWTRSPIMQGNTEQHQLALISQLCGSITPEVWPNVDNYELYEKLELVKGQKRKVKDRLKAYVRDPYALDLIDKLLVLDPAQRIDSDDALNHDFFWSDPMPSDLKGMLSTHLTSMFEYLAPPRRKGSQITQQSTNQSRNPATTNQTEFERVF
UniProt O60674, whole entry: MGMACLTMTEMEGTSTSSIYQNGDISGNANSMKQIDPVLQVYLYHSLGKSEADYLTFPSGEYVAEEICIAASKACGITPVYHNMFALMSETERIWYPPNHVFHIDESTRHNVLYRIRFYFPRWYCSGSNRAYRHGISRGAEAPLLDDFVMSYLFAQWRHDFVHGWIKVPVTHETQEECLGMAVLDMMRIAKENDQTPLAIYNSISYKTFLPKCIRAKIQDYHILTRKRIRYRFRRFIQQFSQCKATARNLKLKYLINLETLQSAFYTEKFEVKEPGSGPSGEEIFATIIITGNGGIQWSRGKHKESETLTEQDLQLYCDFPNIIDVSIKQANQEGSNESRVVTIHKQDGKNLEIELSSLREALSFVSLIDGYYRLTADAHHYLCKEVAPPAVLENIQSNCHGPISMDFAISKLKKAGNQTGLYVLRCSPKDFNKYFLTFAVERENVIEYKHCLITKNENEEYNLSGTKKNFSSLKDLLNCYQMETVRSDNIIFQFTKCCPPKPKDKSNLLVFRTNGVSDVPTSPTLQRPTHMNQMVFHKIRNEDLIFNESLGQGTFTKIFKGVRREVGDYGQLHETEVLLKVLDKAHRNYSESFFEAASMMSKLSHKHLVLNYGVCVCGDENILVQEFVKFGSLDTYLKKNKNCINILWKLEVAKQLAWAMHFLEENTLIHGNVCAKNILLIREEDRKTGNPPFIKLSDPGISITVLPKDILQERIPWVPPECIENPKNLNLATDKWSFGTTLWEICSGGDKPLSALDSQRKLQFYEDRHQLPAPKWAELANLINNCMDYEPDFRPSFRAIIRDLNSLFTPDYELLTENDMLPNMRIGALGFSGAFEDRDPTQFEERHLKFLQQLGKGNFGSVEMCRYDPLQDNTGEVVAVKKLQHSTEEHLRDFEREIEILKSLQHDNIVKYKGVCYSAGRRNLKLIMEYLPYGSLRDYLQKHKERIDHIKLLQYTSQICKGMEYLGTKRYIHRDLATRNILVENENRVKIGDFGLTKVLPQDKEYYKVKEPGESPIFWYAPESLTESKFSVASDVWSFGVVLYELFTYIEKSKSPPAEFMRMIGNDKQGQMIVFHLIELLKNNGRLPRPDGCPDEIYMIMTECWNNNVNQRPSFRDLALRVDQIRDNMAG
UniProt Q07002, whole entry: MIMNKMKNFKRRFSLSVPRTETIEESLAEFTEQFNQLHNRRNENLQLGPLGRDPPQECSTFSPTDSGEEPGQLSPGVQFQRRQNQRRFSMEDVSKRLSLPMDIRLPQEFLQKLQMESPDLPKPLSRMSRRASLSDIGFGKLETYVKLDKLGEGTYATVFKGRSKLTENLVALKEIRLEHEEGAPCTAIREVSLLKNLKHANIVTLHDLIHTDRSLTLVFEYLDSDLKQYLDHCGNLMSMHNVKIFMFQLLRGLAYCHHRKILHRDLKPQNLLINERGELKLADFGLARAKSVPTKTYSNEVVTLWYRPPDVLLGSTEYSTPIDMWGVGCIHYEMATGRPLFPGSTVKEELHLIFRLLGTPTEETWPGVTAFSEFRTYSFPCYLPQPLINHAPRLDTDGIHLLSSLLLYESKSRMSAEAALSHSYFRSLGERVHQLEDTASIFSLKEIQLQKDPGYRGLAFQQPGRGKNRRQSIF
UniProt P23458, whole entry: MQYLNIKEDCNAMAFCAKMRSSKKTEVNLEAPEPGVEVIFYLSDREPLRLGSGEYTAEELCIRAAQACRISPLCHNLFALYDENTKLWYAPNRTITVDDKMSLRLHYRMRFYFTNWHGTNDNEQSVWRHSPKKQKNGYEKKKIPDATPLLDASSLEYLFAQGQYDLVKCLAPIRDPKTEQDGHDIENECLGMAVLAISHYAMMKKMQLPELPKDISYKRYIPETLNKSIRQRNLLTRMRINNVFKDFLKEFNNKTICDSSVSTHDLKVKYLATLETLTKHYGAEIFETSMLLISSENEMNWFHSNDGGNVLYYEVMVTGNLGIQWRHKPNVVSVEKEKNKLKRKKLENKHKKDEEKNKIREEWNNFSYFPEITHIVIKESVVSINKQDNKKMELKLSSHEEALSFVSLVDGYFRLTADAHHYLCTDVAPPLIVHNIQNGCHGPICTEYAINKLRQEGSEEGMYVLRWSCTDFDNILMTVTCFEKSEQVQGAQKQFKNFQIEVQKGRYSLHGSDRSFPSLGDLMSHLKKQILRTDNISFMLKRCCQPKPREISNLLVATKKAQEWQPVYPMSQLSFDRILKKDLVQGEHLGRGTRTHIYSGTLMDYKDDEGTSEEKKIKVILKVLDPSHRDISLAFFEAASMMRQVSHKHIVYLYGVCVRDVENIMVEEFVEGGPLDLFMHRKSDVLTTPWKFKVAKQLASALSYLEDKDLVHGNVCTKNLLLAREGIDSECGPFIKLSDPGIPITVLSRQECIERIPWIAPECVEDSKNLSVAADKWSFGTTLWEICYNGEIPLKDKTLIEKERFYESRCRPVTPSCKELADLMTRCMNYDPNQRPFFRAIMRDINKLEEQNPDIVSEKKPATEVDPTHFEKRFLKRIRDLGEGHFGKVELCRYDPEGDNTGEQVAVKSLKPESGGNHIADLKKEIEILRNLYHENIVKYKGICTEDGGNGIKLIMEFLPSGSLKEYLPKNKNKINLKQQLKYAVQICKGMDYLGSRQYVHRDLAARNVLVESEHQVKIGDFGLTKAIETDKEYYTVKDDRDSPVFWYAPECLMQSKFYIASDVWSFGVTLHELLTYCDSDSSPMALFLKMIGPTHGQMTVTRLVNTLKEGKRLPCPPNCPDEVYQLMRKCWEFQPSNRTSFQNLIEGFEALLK
UniProt Q00535, whole entry: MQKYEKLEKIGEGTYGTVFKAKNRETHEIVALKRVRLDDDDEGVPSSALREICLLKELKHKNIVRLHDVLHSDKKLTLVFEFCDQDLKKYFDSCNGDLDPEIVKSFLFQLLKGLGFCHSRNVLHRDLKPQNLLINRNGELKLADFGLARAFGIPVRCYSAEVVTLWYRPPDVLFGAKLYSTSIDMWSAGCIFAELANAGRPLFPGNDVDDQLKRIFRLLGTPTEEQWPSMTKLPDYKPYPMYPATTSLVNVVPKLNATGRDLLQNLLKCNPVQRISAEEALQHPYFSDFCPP
UniProt Q00534, whole entry: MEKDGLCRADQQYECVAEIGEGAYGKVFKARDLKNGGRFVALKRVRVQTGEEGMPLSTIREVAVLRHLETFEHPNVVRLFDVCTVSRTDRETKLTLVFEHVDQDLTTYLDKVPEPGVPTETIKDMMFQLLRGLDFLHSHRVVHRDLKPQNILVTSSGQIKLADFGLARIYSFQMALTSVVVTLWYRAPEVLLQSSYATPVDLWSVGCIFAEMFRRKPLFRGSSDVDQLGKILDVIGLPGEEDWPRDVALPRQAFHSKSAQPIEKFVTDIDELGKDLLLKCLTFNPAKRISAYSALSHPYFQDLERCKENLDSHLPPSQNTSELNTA
UniProt P06493, whole entry: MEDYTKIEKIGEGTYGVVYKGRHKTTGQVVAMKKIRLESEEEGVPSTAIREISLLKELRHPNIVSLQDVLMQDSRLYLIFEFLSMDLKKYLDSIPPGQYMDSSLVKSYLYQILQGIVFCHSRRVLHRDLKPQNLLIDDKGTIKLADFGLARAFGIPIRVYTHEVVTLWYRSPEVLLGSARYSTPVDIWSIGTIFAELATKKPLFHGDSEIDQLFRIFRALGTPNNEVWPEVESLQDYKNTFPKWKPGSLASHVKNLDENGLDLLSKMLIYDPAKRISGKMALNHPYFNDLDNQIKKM
UniProt Q08881, whole entry: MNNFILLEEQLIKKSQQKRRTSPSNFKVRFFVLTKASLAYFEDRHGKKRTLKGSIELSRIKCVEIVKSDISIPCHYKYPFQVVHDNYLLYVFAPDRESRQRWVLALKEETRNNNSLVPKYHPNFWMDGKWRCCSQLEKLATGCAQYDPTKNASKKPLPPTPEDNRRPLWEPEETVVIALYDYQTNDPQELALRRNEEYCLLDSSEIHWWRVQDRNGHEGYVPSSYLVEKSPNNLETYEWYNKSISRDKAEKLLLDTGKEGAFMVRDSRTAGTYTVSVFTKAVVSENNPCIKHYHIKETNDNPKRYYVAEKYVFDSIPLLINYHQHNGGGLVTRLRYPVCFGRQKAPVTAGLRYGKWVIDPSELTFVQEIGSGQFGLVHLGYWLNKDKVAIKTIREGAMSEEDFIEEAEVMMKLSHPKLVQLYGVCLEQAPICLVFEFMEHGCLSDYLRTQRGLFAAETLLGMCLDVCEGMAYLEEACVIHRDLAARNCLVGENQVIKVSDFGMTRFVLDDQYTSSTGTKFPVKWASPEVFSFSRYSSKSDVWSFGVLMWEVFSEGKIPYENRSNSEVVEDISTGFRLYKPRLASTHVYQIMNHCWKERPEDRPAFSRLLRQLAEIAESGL
UniProt Q9NYV4, whole entry: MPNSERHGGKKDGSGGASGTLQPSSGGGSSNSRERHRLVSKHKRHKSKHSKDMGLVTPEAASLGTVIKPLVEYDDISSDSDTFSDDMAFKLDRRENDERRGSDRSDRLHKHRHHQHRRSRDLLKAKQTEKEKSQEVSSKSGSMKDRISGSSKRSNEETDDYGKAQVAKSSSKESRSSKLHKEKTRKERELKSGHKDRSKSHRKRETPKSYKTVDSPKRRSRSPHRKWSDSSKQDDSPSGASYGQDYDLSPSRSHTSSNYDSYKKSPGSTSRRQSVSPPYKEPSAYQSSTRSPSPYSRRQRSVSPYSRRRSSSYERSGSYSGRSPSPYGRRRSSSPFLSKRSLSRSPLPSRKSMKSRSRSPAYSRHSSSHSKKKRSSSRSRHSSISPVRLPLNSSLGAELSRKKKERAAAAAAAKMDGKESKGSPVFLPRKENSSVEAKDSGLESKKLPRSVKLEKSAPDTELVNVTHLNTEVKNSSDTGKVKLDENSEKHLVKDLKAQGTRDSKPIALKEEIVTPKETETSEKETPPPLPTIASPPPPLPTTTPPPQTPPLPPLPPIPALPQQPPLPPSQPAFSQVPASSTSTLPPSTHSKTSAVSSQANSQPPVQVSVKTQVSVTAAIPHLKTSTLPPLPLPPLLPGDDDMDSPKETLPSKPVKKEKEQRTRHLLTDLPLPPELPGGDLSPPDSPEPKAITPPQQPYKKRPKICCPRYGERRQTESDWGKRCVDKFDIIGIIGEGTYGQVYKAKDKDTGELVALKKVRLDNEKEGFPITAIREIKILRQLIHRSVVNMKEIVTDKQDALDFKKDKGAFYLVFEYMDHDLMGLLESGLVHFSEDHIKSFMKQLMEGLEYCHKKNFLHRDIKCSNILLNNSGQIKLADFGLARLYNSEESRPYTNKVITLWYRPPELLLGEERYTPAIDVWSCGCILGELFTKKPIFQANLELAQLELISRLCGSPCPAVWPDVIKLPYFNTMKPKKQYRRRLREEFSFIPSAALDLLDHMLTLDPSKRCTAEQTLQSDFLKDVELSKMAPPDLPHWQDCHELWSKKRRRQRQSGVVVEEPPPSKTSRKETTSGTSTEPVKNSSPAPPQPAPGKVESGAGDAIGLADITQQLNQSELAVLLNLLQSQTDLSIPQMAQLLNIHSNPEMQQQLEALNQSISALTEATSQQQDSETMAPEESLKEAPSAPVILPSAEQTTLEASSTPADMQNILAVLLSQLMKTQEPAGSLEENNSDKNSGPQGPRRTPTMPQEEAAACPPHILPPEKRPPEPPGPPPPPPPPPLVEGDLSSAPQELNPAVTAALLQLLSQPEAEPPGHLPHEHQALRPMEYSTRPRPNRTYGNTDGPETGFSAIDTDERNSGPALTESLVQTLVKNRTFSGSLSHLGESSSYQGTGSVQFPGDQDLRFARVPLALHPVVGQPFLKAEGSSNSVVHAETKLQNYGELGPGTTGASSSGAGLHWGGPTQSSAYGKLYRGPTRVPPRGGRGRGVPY
UniProt P50613, whole entry: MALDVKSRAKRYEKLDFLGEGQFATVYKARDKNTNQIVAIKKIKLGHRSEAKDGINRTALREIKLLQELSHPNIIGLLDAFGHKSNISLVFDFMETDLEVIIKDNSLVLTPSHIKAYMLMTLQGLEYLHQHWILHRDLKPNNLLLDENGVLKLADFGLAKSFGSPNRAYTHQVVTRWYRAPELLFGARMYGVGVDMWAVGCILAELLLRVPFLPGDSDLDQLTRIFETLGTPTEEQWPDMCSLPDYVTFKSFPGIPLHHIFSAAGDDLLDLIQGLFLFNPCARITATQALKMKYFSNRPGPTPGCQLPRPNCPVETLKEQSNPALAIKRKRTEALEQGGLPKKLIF

According to patent publication US20260384442A1, “MACROCYCLIC COMPOUND AS CDK9 INHIBITOR AND USE THEREOF” (published 2026):

How the values were obtained:
[1] = biological target: CDK9 (Homo sapiens, UniProt P50750); experiment: Inhibition on CDK9 kinase activity, caliper mobility shift assay; conditions: 10 nM; for inhibition rate on CDK9 kinase activity: duplicate wells (Table 1)
Method: Compounds were tested at a concentration of 10 nM with detection in duplicate wells, or tested at 10 concentrations starting from 10 μM with three-fold serial dilutions, with detection in duplicate wells.
(§1) The inhibitory effect of the compounds on the activity of CDK9 protein kinase was detected by the caliper mobility shift assay method. 250 nL of the compound at 100-fold final concentration was transferred to a target 384-well-plate with a dispenser Echo 550. A kinase solution at 2.5-fold final concentration was prepared using 1× kinase buffer. 10 μL of the kinase solution at 2.5-fold final concentration was added to the compound well and positive control well respectively. 10 μL of 1× kinase buffer was added to the negative control well. The 384-well plate was centrifuged at 1000 rpm for 30 seconds and incubated at room temperature for 10 minutes. A mixed solution of ATP and kinase substrate at 5/3-fold final concentration was prepared with 1× kinase buffer, and to the 384-well plate was added with 15 μL per well of the mixed solution of ATP and substrate at 5/3-fold final concentration to start the reaction. The plate was centrifuged at 1000 rpm for 30 seconds, shaken to mix evenly, and incubated at room temperature for a corresponding time. 30 μL of detection stopping solution was added to terminate the kinase reaction. The 384-well plate was centrifuged at 1000 rpm for 30 seconds and shaken to mix evenly. The conversion rate was read with Caliper EZ Reader. The percent conversion inhibition rate=(% positive control conversion rate mean−% sample conversion rate/(% positive control conversion rate mean−% negative control conversion rate mean). Among them: negative control wells represent the conversion rate readings of kinase buffer background wells; positive control wells represent the conversion rate readings of wells without inhibition by compound. With the log value of concentration as the x-axis and the percentage inhibition rate as the y-axis, a dose-response curve was fitted using the log (inhibitor) vs. response—Variable slope of the analysis software GraphPad Prism 5 to obtain the IC50 value of each compound on enzyme activity. Calculation formula: y=Bottom+(Top− Bottom)/(1+10^((Log IC50−x)×hillslope)), x: logarithm of inhibitor concentration; y: % inhibition rate.
(§2) According to the description of the above experiment on kinase activity inhibition, some compounds were tested for their selective inhibition rate against the kinases of CDK7, CDK9, JAK1, JAK2, JAK3, ITK, RET, TYK2, and LRRK2 at 10 nM.

[2] = biological target: JAK2 (Homo sapiens, UniProt O60674); experiment: Kinase selectivity at 10 nM, JAK2
Method: as §1, §2

[3] = biological target: CDK18/CyclinY (Homo sapiens, UniProt Q07002); experiment: CDK kinase selectivity (HTRF / ADP-Glo), CDK18/CyclinY; conditions: 0.1 μM, duplicate wells
Method: (§3) The selectivity of the test compounds against CDK kinases was detected. The compounds were tested at a concentration of 0.1 μM, and the inhibition rate of CDK kinases by the compounds was detected in duplicate wells, mainly using HTRF and ADP-Glo detection methods.
(§4) The HTRF detection method was conducted as follows: 2-fold ATP/substrate solution and 2-fold kinase/metal ion solution were prepared respectively with a kinase reaction buffer, and 25 nL of diluted compound solution was transferred to a 384-well detection plate with Echo 655. After centrifugation, the plate was added with 2.5 μL of 2-fold kinase/metal ion solution and incubated at 25 °C for 10 minutes. After 10 minutes, 2.5 μL of 2-fold substrate/ATP solution was added to the 384-well detection plate and incubated at 25 °C for 60 minutes. 2 kinase detection reagent (XL665 and antibody) was prepared with detection buffer, and 5 μL of kinase detection reagent was added to the 384-well detection plate and incubated at 25 °C for 60 minutes. The fluorescence signals at 620 nm (Cryptate) and 665 nm (XL665) were read by the microplate reader, and the ratio and the inhibition rate of kinase activity by the compound were calculated.
(§5) The ADP-Glo detection method was conducted as follows. […] The chemiluminescent signal was detected with a microplate reader and the inhibition rate of kinase activity was calculated.

[4] = biological target: JAK1 (Homo sapiens, UniProt P23458); experiment: Kinase selectivity at 10 nM, JAK1
Method: as §1, §2

[5] = biological target: CDK16/CyclinY (Homo sapiens, UniProt Q00536); experiment: CDK kinase selectivity (HTRF / ADP-Glo), CDK16/CyclinY; conditions: 0.1 μM, duplicate wells
Method: as §3, §4, §5

[6] = biological target: CDK5/p25NCK (Homo sapiens, UniProt Q00535); experiment: CDK kinase selectivity (HTRF / ADP-Glo), CDK5/p25NCK; conditions: 0.1 μM, duplicate wells
Method: as §3, §4, §5

[7] = biological target: CDK6/CycD1 (Homo sapiens, UniProt Q00534); experiment: CDK kinase selectivity (HTRF / ADP-Glo), CDK6/CycD1; conditions: 0.1 μM, duplicate wells
Method: as §3, §4, §5

[8] = biological target: CDK1/CycE1 (Homo sapiens, UniProt P06493); experiment: CDK kinase selectivity (HTRF / ADP-Glo), CDK1/CycE1; conditions: 0.1 μM, duplicate wells
Method: as §3, §4, §5

[9] = biological target: ITK (Homo sapiens, UniProt Q08881); experiment: Kinase selectivity at 10 nM, ITK
Method: as §1, with “A mixed solution of ATP and kinase substrate at 5/3-fold final concentration was prepared with 1× kinase buffer, and to the 384-well plate was added with 15 μL per well of the mixed solution of ATP and substrate at 5/3-fold final concentration to start the reaction. The plate was centrifuged at 1000 rpm for 30 seconds, shaken to mix evenly, and incubated at room temperature for a corresponding time. 30 μL of detection stopping solution was added to terminate the kinase reaction. The 384-well plate was centrifuged at 1000 rpm for 30 seconds and shaken to mix evenly.” left out, “Calculation formula: y=Bottom+(Top− Bottom)/(1+10^((Log IC50−x)×hillslope)), x: logarithm of inhibitor concentration; y: % inhibition rate.” left out

[10] = biological target: CDK12/CyclinK (Homo sapiens, UniProt Q9NYV4); experiment: CDK kinase selectivity (HTRF / ADP-Glo), CDK12/CyclinK; conditions: 0.1 μM, duplicate wells
Method: as §3, §4, §5

[11] = biological target: CDK6/CycD3 (Homo sapiens, UniProt Q00534); experiment: CDK kinase selectivity (HTRF / ADP-Glo), CDK6/CycD3; conditions: 0.1 μM, duplicate wells
Method: as §3, §4, §5

[12] = biological target: CDK2/CyCA2 (Homo sapiens, UniProt P24941); experiment: CDK kinase selectivity (HTRF / ADP-Glo), CDK2/CyCA2; conditions: 0.1 μM, duplicate wells
Method: as §3, §4, §5

[13] = biological target: CDK7 (Homo sapiens, UniProt P50613); experiment: Kinase selectivity at 10 nM, CDK7
Method: as §1, with “A mixed solution of ATP and kinase substrate at 5/3-fold final concentration was prepared with 1× kinase buffer, and to the 384-well plate was added with 15 μL per well of the mixed solution of ATP and substrate at 5/3-fold final concentration to start the reaction. The plate was centrifuged at 1000 rpm for 30 seconds, shaken to mix evenly, and incubated at room temperature for a corresponding time. 30 μL of detection stopping solution was added to terminate the kinase reaction. The 384-well plate was centrifuged at 1000 rpm for 30 seconds and shaken to mix evenly.” left out, “Calculation formula: y=Bottom+(Top− Bottom)/(1+10^((Log IC50−x)×hillslope)), x: logarithm of inhibitor concentration; y: % inhibition rate.” left out

[14] = biological target: JAK3 (Homo sapiens, UniProt P52333); experiment: Kinase selectivity at 10 nM, JAK3
Method: as §1, with “A mixed solution of ATP and kinase substrate at 5/3-fold final concentration was prepared with 1× kinase buffer, and to the 384-well plate was added with 15 μL per well of the mixed solution of ATP and substrate at 5/3-fold final concentration to start the reaction. The plate was centrifuged at 1000 rpm for 30 seconds, shaken to mix evenly, and incubated at room temperature for a corresponding time. 30 μL of detection stopping solution was added to terminate the kinase reaction. The 384-well plate was centrifuged at 1000 rpm for 30 seconds and shaken to mix evenly.” left out, “Calculation formula: y=Bottom+(Top− Bottom)/(1+10^((Log IC50−x)×hillslope)), x: logarithm of inhibitor concentration; y: % inhibition rate.” left out

[15] = biological target: LRRK2 (Homo sapiens, UniProt Q5S007); experiment: Kinase selectivity at 10 nM, LRRK2
Method: as §1, with “rate. […]” for “rate.”

[16] = biological target: CDK5/p35NCK (Homo sapiens, UniProt Q00535); experiment: CDK kinase selectivity (HTRF / ADP-Glo), CDK5/p35NCK; conditions: 0.1 μM, duplicate wells
Method: as §3, §4, §5

[17] = biological target: CDK19/CycC (Homo sapiens, UniProt Q9BWU1); experiment: CDK kinase selectivity (HTRF / ADP-Glo), CDK19/CycC; conditions: 0.1 μM, duplicate wells
Method: as §3, §4, §5

[18] = biological target: CDK9/CycT1 (Homo sapiens, UniProt P50750); experiment: CDK kinase selectivity (HTRF / ADP-Glo), CDK9/CycT1; conditions: 0.1 μM, duplicate wells
Method: as §3, §4, §5

[19] = biological target: CDK2/CycE1 (Homo sapiens, UniProt P24941); experiment: CDK kinase selectivity (HTRF / ADP-Glo), CDK2/CycE1; conditions: 0.1 μM, duplicate wells
Method: as §3, §4, §5

[20] = biological target: RET (Homo sapiens, UniProt P07949); experiment: Kinase selectivity at 10 nM, RET
Method: as §1, with “A mixed solution of ATP and kinase substrate at 5/3-fold final concentration was prepared with 1× kinase buffer, and to the 384-well plate was added with 15 μL per well of the mixed solution of ATP and substrate at 5/3-fold final concentration to start the reaction. The plate was centrifuged at 1000 rpm for 30 seconds, shaken to mix evenly, and incubated at room temperature for a corresponding time. 30 μL of detection stopping solution was added to terminate the kinase reaction. The 384-well plate was centrifuged at 1000 rpm for 30 seconds and shaken to mix evenly.” left out, “Calculation formula: y=Bottom+(Top− Bottom)/(1+10^((Log IC50−x)×hillslope)), x: logarithm of inhibitor concentration; y: % inhibition rate.” left out

[21] = biological target: CDK13/CyclinK (Homo sapiens, UniProt Q14004); experiment: CDK kinase selectivity (HTRF / ADP-Glo), CDK13/CyclinK; conditions: 0.1 μM, duplicate wells
Method: as §3, §4, §5

[22] = biological target: CDK4/cycD1 (Homo sapiens, UniProt P11802); experiment: CDK kinase selectivity (HTRF / ADP-Glo), CDK4/cycD1; conditions: 0.1 μM, duplicate wells
Method: as §3, §4, §5

[23] = biological target: TYK2 (Homo sapiens, UniProt P29597); experiment: Kinase selectivity at 10 nM, TYK2
Method: as §1, with “A mixed solution of ATP and kinase substrate at 5/3-fold final concentration was prepared with 1× kinase buffer, and to the 384-well plate was added with 15 μL per well of the mixed solution of ATP and substrate at 5/3-fold final concentration to start the reaction. The plate was centrifuged at 1000 rpm for 30 seconds, shaken to mix evenly, and incubated at room temperature for a corresponding time. 30 μL of detection stopping solution was added to terminate the kinase reaction. The 384-well plate was centrifuged at 1000 rpm for 30 seconds and shaken to mix evenly.” left out, “Calculation formula: y=Bottom+(Top− Bottom)/(1+10^((Log IC50−x)×hillslope)), x: logarithm of inhibitor concentration; y: % inhibition rate.” left out

[24] = biological target: CDK3/CycE1 (Homo sapiens, UniProt Q00526); experiment: CDK kinase selectivity (HTRF / ADP-Glo), CDK3/CycE1; conditions: 0.1 μM, duplicate wells
Method: as §3, §4, §5

[25] = biological target: CDK1/CycA2 (Homo sapiens, UniProt P06493); experiment: CDK kinase selectivity (HTRF / ADP-Glo), CDK1/CycA2; conditions: 0.1 μM, duplicate wells
Method: as §3, §4, §5

[26] = biological target: CDK7/CycH/MAT1 (Homo sapiens, UniProt P50613); experiment: CDK kinase selectivity (HTRF / ADP-Glo), CDK7/CycH/MAT1; conditions: 0.1 μM, duplicate wells
Method: as §3, §4, §5

[27] = biological target: CDK1/CycB1 (Homo sapiens, UniProt P06493); experiment: CDK kinase selectivity (HTRF / ADP-Glo), CDK1/CycB1; conditions: 0.1 μM, duplicate wells
Method: as §3, §4, §5

[28] = biological target: CDK4/CycD3 (Homo sapiens, UniProt P11802); experiment: CDK kinase selectivity (HTRF / ADP-Glo), CDK4/CycD3; conditions: 0.1 μM, duplicate wells
Method: as §3, §4, §5

Cc1nc2sc1-c1nc(ncc1F)Nc1cccc(c1)NCCOCCN2
B (25-49%): inhibition rate on CDK9 kinase activity [1]

Clc1cnc2nc1NCCCCCNCc1cccc(c1)N2
A (>50%): inhibition rate on CDK9 kinase activity [1] | inhibition rate CDK9 ([1]; selectivity panel (Table 3))
D (<50%): inhibition rate CDK18/CyclinY [3] | inhibition rate CDK6/CycD1 [7] | inhibition rate CDK1/CycE1 [8] | inhibition rate CDK6/CycD3 [11] | inhibition rate CDK2/CyCA2 [12] | inhibition rate CDK5/p35NCK [16] | inhibition rate CDK19/CycC [17] | inhibition rate CDK4/cycD1 [22] | inhibition rate CDK1/CycA2 [25] | inhibition rate CDK1/CycB1 [27]
C (50-75%): inhibition rate CDK16/CyclinY [5] | inhibition rate CDK5/p25NCK [6] | inhibition rate CDK12/CyclinK [10] | inhibition rate CDK2/CycE1 [19] | inhibition rate CDK13/CyclinK [21] | inhibition rate CDK3/CycE1 [24] | inhibition rate CDK7/CycH/MAT1 [26] | inhibition rate CDK4/CycD3 [28]
A (>95%): inhibition rate CDK9/CycT1 [18]
B (25-49%): inhibition rate JAK2 [2]
C (<25%): inhibition rate JAK1 [4] | inhibition rate ITK [9] | inhibition rate CDK7 [13] | inhibition rate JAK3 [14] | inhibition rate LRRK2 [15] | inhibition rate RET [20] | inhibition rate TYK2 [23]
